Data: PMC2726290, “Decoding of Methylated Histone H3 Tail by the Pygo-BCL9 Wnt Signaling Complex” (Molecular Cell, 2008)

Amino acid sequences for entries named in this document (tags omitted). A change or cut given only in a name is not applied to a line headed by its entry.
UniProt O00512: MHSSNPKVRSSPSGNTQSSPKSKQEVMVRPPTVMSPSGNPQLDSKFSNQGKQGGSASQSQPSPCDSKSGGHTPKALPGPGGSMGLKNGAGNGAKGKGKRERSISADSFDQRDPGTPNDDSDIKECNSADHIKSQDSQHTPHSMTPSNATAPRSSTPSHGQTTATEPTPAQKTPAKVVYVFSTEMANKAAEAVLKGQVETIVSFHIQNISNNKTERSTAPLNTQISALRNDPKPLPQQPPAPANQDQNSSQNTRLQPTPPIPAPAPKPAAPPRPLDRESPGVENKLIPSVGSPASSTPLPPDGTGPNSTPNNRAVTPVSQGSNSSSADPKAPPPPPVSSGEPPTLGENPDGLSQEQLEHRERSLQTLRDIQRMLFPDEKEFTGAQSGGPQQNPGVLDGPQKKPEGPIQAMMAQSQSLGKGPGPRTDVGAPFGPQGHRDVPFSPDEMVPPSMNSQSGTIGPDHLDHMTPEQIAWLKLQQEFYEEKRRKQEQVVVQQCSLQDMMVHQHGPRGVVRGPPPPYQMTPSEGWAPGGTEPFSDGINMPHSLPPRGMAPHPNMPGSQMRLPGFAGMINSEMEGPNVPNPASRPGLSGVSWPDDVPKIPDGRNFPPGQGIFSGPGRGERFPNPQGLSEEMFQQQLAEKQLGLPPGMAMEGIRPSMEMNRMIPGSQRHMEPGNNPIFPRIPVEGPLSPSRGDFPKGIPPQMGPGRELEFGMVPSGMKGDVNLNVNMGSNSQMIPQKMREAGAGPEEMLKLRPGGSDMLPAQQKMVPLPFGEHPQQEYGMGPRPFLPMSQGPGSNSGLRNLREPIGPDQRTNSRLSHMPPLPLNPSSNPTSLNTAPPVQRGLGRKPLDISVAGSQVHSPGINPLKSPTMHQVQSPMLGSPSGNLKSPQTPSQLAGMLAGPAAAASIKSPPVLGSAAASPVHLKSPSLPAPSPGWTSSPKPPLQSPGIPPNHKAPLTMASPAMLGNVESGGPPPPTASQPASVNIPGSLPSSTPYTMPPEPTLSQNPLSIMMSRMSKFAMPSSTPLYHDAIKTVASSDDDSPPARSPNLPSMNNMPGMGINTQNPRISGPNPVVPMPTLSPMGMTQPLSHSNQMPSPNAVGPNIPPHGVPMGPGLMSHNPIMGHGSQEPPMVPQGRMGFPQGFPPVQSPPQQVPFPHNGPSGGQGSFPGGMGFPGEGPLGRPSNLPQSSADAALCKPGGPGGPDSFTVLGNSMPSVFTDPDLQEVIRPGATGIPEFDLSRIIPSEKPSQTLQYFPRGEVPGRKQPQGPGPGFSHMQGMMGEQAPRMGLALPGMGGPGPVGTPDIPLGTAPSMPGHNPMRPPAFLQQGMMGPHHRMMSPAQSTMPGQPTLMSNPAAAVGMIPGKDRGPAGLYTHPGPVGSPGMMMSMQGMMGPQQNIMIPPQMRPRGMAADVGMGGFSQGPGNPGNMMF

Tests used:
Format in all cases: binding
[1] = molecular target: T1, PHD finger from hPygo1 (hPHD) (Homo sapiens, UniProt Q9Y3Y4); assay: ITC, histone tail peptides with free hPHD; details: 15-mer peptides, ITC at 25 °C, pH 8.0
T1 construct: hPygo1 PHD (amino acids 333–402); GST (N, cleaved yes); made in house; host or cells: E. coli BL21-CodonPlus(DE3)-RIL
T1 sequence (Q9Y3Y4 333-402): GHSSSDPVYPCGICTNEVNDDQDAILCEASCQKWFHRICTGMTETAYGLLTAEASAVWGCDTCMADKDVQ
Procedure: Free PHD fingers were purified similarly to the PHD-HD1 complexes, and purity was assessed by SDS-PAGE prior to use for ITC.
(§1) ITC was carried out using a VP-ITC Microcal calorimeter (Microcal, Northhampton, MA, USA). Peptides were lyophilized against freshly prepared 20mM ammonium bicarbonate solution and resuspended in the ITC dialysis buffer (25mM Tris pH 8.0, 100mM NaCl and 2mM β-mercaptoethanol). Experiments were performed at 25 °C. During titration, 4-12µl aliquots of 0.5-1.0mM peptide solution was injected into a solution of 50µM protein at time intervals of 5 min. ITC data were corrected for the heat of dilution and analyzed using Origin (version 5.0) provided by the manufacturer. […]

[2] = molecular target: T2, hPHD-HD1 complex (hPygo1 PHD with hBCL9 HD1) (Homo sapiens, UniProt O00512+Q9Y3Y4); assay: ITC, histone tail peptides with human PHD-HD1 complex; details: ITC at 25 °C, pH 8.0
T2 construct: hPygo1 PHD (amino acids 333–402); GST (N, cleaved yes); made in house; host or cells: E. coli BL21-CodonPlus(DE3)-RIL
T2 sequence (Q9Y3Y4 333-402): T1 sequence (Q9Y3Y4 333-402)
T2 sequence (O00512 177-205 partner limits assumed): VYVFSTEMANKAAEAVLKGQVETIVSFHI
Procedure: as §1

[3] = molecular target: T3, dPHD-HD1 complex (Drosophila Pygo PHD with Lgs HD1) (Drosophila melanogaster, UniProt Q961D9+Q9V9W8); assay: ITC, histone tail peptides with Drosophila PHD-HD1 complex; details: ITC at 25 °C, pH 8.0
T3 construct: Drosophila Pygo PHD (amino acids 747–808); GST (N, cleaved yes); made in house; host or cells: E. coli BL21-CodonPlus(DE3)-RIL
T3 sequence (Q9V9W8 747-808): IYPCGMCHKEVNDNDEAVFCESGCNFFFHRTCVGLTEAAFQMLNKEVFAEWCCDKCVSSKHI
T3 sequence (Q961D9 316-350 partner limits assumed): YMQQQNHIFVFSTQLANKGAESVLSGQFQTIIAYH
Procedure: as §1

## 15-mer H3K4me0: unmodified 15-mer histone H3 tail peptide
[1]
  binding (in words): essentially undetectable
[2]
  binding (in words): Neither complex showed detectable binding
[3]
  binding (in words): Neither complex showed detectable binding
